Patent US11053226B2, “KRAS G12C inhibitors and methods of using the same” (Amgen Inc., priority 2018, dated 2021)

By UniProt entry, the sequences of proteins in these tests, tags left out. Chains listed by the source or under a name are the forms on record and can include a tag or linker. Residues count along the entry.
UniProt P01116, 1-164 with tags or gaps C118A/G12C limits assumed: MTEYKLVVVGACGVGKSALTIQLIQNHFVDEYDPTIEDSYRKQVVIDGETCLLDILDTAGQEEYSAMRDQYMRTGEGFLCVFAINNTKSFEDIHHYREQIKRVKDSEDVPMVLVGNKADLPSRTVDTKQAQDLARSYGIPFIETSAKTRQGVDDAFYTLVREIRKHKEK

Assays:
[1] = test system: Phosphorylation of ERK1/2 in A549 cells; assay: Phospho-ERK1/2 MSD Assay (A549); settings: read-out: pERK IC50 (4 h, A549), 4 h compound treatment
[2] = test system: Phosphorylation of ERK1/2 in MIA PaCa-2 cells; assay: Phospho-ERK1/2 MSD Assay; assay type: cell-based; settings: read-out: pERK IC50 (4 h, MiaPaCa-2); 4 h compound treatment; MiaPaCa-2 cells
[3] = molecular target: GDP-bound KRAS protein (aa 1-169), containing both G12C and C118A amino acid substitutions (Homo sapiens (Human), UniProt P01116, C118A/G12C); assay: Coupled Nucleotide Exchange Assay; assay type: biochemical

| IC50 [1] | IC50 [2] | IC50 ([3]; read-out: Coupled Exchange IC50 (2 h), 2 h compound pre-incubation) | IC50 ([3]; read-out: Coupled Exchange IC50 (20 h), 20 h compound pre-incubation) | IC50 ([3]; read-out: Coupled Exchange IC50) | SMILES |
| --- | --- | --- | --- | --- | --- |
| 61 µM | 13.9 µM | 3.12 µM | 0.63 µM | – | C=CC(=O)N1CC(NC(=O)Cn2c3ccccc3c3cc(Cl)ccc32)C1 |
| – | – | – | – | 34.7 µM | C=CC(=O)N1CC(N2CCC(n3c(C4CC4)cc4cc(Cl)cc(C)c43)C2=O)C1 (centres unmarked) |

Where two headings read alike, the source gives them in different places.
